Antibody variant affinities, Ab-14 light chain, assay B

From the AlphaSeq antibody data of Li et al. 2023 (doi:10.1038/s41467-023-39022-2), copy in the FLAb collection.

Target peptide (SARS-CoV-2 spike, HR2 region): PDVDLGDISGINAS

The variants keep the heavy chain, the linker and the frameworks of Ab-14 (scFv order VH, three GGGGS repeats, VL).
VH: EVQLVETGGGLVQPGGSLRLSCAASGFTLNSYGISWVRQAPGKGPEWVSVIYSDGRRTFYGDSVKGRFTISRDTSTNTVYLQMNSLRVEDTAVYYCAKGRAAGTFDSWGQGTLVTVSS
VL: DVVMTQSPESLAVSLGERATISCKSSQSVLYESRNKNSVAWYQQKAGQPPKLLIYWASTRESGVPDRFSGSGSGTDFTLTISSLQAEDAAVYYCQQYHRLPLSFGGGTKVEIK

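These sequences belong to a second round, designed from the earlier measurements on random variants of the parent. Their group label is 14L_GP_HC (GP: Gaussian process model; HC: hill climbing; a sequence that several methods proposed may carry one label only). Affinity was read by AlphaSeq, a pooled yeast mating assay with surface-displayed partners. Binding brings cells together so that they mate, and sequencing counts the barcode pairs among the diploids. Scores were corrected for input abundance and mapped to Kd with protein pairs of known affinity run in the same pool. The assay was run in six technical replicates.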

Changes read parent residue, position, new residue, counted from the first residue of the VL shown. The read-out is the apparent dissociation constant on a log10 scale (nM): the lower, the stronger. A mean of the replicates is given; it leaves out those without a signal. "nd" means that the variant was in the library but no mating with the target was seen in that replicate; the authors take this as a sign of poor binding, and no number exists.

changes,"log10 Kd, replicates",mean log10 Kd (nM),empty controls
S25I Y31M K36A W56D,0.17 / 0.21 / -0.21 / 0.26 / -0.25 / 0.14,0.05,0 of 18
K24H S25V Q27P W56D,-0.18 / -0.41 / -0.45 / -0.61 / -0.61 / -0.43,-0.45,2 of 18 (2.57)
S25Q Q27L Y31F W56N,0.72 / 0.32 / 0.34 / 0.15 / 0.12 / 0.43,0.35,1 of 18 (2.81)
V29F W56G P101T S103F,nd / nd / nd / nd / nd / nd,nd,0 of 18
S25L S26P Q27N V29T N35Q E61L,1.03 / 1.48 / 1.36 / 1.54 / 1.42 / 0.98,1.30,1 of 18 (3.02)
Q27T V29Y W56A,0.61 / -0.07 / 0.14 / 0.24 / -0.31 / 0.33,0.16,0 of 18
S25L S26Q S38A W56D R99W,0.01 / -0.09 / 0.01 / -0.28 / -0.22 / 0.01,-0.09,3 of 18 (2.58)
S26L Q27W R34N W56N S62D,0.37 / 0.59 / 0.28 / 0.25 / 0.24 / 0.29,0.34,0 of 18
S25Q S28E L30P Y31F W56D,0.30 / -0.22 / -0.46 / -0.16 / -0.31 / -0.36,-0.20,0 of 18
S25L S26R S28Q V29T W56N S58D S62E,-0.37 / -0.17 / -0.51 / -0.30 / -0.38 / -0.12,-0.31,0 of 18
S25F Q27D Y31L N35T K36F W56N,0.00 / -0.01 / -0.04 / -0.05 / -0.22 / 0.15,-0.03,0 of 18
Q27I V29Y K36E W56E S62L,0.66 / 0.62 / 0.54 / 0.84 / 0.38 / 0.75,0.63,1 of 18 (2.04)
Q27I V29Q E32A N35M W56E,0.63 / 0.49 / 0.46 / 0.56 / 0.42 / 0.77,0.56,2 of 18 (2.05)
Q27I V29Y R34M W56S A57G,0.40 / 0.77 / 0.61 / 0.11 / 0.10 / 0.45,0.41,0 of 18
S26L S28A V29W W56H S62Q,0.70 / 1.47 / 1.41 / 0.74 / 0.67 / 0.68,0.95,1 of 18 (2.82)
S25C S28A V29F W56D S58N,0.01 / 0.11 / -0.17 / -0.15 / -0.42 / -0.26,-0.15,0 of 18
S25Q Q27D W56D,0.04 / -0.38 / -0.49 / -0.39 / -0.29 / -0.08,-0.27,1 of 18 (3.11)
Q27I V29E N35M W56E,0.28 / 0.33 / 0.14 / -0.10 / 0.24 / 0.43,0.22,2 of 18 (2.54)
S25L S26E V29I L30N W56N,-0.62 / -0.26 / -0.86 / -0.75 / -0.69 / -0.52,-0.62,0 of 18
Q27W Y31Q W56D,0.16 / 0.10 / 0.57 / -0.25 / 0.18 / 0.45,0.20,0 of 18
S25L Q27A W56N,0.02 / -0.14 / -0.24 / -0.17 / -0.20 / 0.04,-0.11,0 of 18
K24H Q27P V29K S38N W56N,0.53 / 0.47 / 0.94 / 0.79 / 0.87 / 0.52,0.69,2 of 18 (2.33)
Q27L R34H W56N E61M,1.38 / 1.00 / 1.15 / 0.77 / 0.84 / 1.17,1.05,0 of 18
S25V V29W K36F N37W W56N,0.10 / -0.03 / 0.16 / 0.07 / -0.13 / 0.18,0.06,1 of 18 (2.93)
S25F S28L N35T W56N,0.04 / 0.39 / 0.51 / 0.29 / 0.17 / 0.61,0.34,1 of 18 (3.31)
Q27M V29Y K36T W56E,0.91 / 0.23 / 0.73 / 0.30 / 0.04 / 0.54,0.46,0 of 18
S25A S26L W56H S62D,0.37 / 0.19 / 0.17 / -0.01 / -0.13 / 0.37,0.16,0 of 18
Q27I V29Y K36E W56N S62Q,0.38 / 0.27 / 0.07 / -0.16 / 0.02 / 0.29,0.15,3 of 18 (3.37)
S25Q Y31G W56M,nd / nd / nd / nd / nd / nd,nd,0 of 18
Q27I V29H W56E,-0.03 / 0.17 / -0.01 / 0.30 / 0.32 / 0.27,0.17,1 of 18 (3.12)
S25F S28K S33H N35T W56N A57G,0.88 / 0.33 / 0.64 / 0.56 / 0.65 / 0.54,0.60,1 of 18 (2.30)
V29D W56G T59A S62V,-0.23 / -0.17 / 0.06 / -0.11 / -0.28 / -0.28,-0.17,0 of 18
K24H S25L Q27W W56N,-0.07 / 0.03 / 0.01 / -0.27 / -0.15 / 0.07,-0.06,0 of 18
L30K Y31Q W56D,0.12 / 0.20 / -0.03 / -0.18 / -0.09 / 0.28,0.05,0 of 18
S26G S28G W56G S103Q,0.76 / 0.38 / 0.35 / 0.47 / 0.57 / 0.76,0.55,1 of 18 (2.95)
S25L S26M W56H T59E S62D,0.54 / 0.32 / 0.34 / 0.24 / 0.52 / 0.49,0.41,0 of 18
K24N S25Q V29W W56G A57G S58N,0.57 / 0.55 / 0.38 / 0.08 / 0.33 / 0.01,0.32,0 of 18
S25L S26P Q27W V29T N35Q,0.68 / 0.71 / 0.92 / 0.66 / 0.79 / 0.92,0.78,2 of 18 (2.61)

Top 3 of the variants detected in all replicates, tightest first:

changes,"log10 Kd, replicates",mean log10 Kd (nM),empty controls
S25L S26E V29I L30N W56N,-0.62 / -0.26 / -0.86 / -0.75 / -0.69 / -0.52,-0.62,0 of 18
K24H S25V Q27P W56D,-0.18 / -0.41 / -0.45 / -0.61 / -0.61 / -0.43,-0.45,2 of 18 (2.57)
S25L S26R S28Q V29T W56N S58D S62E,-0.37 / -0.17 / -0.51 / -0.30 / -0.38 / -0.12,-0.31,0 of 18

In the paper, a design with two or fewer of six values counts as a poor binder. As a blank, each scFv also met three strains without target: over all light chain designs, 4% of these pairings were detected, typically at 2.64 and seldom below 1.59. The control count says in how many pairings with the empty strains this scFv gave a signal, with their mean in brackets. Values of this round are not directly comparable with the first-round values of the same sequences. Of ten entries with the parent sequence, four were seen in most replicates (averages 0.34 to 2.37), three in one and three in none, so single entries are noisy.